Data taken from PMC10618793, “Investigating cannabinoids as P2X purinoreceptor 4 ligands by using surface plasmon resonance and computational docking” (Heliyon, 2023).

Biological target: T1, P2X4 receptor (Homo sapiens, UniProt Q99571)
T1 construct: His tag (N); purchased MyBioSource, Inc (San Diego, CA, USA)
T1 sequence (Q99571 77-338): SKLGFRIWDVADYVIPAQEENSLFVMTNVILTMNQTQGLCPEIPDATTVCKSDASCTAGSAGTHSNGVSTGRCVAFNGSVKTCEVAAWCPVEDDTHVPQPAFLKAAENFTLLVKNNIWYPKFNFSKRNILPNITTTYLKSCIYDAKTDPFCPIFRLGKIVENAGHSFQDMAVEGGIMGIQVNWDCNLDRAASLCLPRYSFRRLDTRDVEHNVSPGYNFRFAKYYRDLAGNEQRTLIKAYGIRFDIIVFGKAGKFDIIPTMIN
Test: Surface plasmon resonance binding screening assay
Settings: SPR Biacore T200, P2X4 immobilized on CM5 chip, 0.4-300 μM, 1:1 binding model, n.d. = not detectable

In the case of CCCc1cc(O)c(C/C=C(\C)CCC=C(C)C)c(O)c1 [CBGV, cannabigerovarin], the Kd (KD (equilibrium dissociation constant)) is reported as 3.1 µM and 3.11 µM, the koff (read-out: Koff (dissociation rate)) is reported as 0.0263 s⁻¹ and the kon (read-out: Kon (association rate)) is reported as 8450 M⁻¹ s⁻¹.

Where “and” joins values, the source holds several entries; their conditions need not be identical. Equal values may be shown once.
